Measurements taken from patent US11903945B2, “Methods of treating antipsychotic-induced weight gain with miricorilant” (Corcept Therapeutics Incorporated, priority 2019, dated 2024).

Conditions: healthy male subjects
Procedure: The dose level tested in our Phase 1b trial was 600 mg/day.
A 2-week, single-center, double-blind, randomized, placebo-controlled study was conducted in healthy male subjects age 18-55 years with BMI between 18-25 kg/m^2 and a stable body weight (defined as the Day 1 pre-dose body weight to be within ±2.0% of screening body weight). […] Food was freely available to all subjects during the study. The difference in mean change in absolute body weight after administration of OLZ+PBO compared to OLZ+MIRI was evaluated using a repeated measures model with imputation applied to missing values.
(HOMA2-IR values were calculated from fasted glucose and insulin levels using the HOMA (HOMA2 Model) Calculator® application programming interface for SAS (Oxford University 2013, available at the website www.dtu.ox.ac.uk/homacalculator)).

Compound: Cc1cc2c(s1)Nc1ccccc1N=C2N1CCN(C)CC1 [olanzapine, reference compound]
- HOMA2-IR increase from baseline on Day 15 (listed as miricorilant = MIRI 600 mg/day + OLZ 10 mg/day, listed as olanzapine = placebo + OLZ 10 mg/day): 1.21
- Insulin increase from baseline, percent, day 8 (listed as miricorilant = olanzapine+miricorilant, listed as olanzapine = olanzapine+placebo): 121%
